{"source": "patent EP0377489A2", "about": "“Purified C5a receptor from human polymorphonuclear leukocytes” (MERCK & CO. INC., priority 1989, dated 1990)", "test_system": "solubilized C5a receptor", "test": "Inhibition of C5a binding to solubilized or purified receptor by nucleotides", "design": "species or system human", "method": "-All assays, except where noted, were performed at 4°C, with freshly thawed membranes or freshly prepared soluble receptor. To assay intact membranes, assay buffer (50 mM HEPES, pH 7.2, containing 1 mM CaCl₂, 5 mM MgCl₂, 0.1 mM PMSF, 0.1% bacitracin, and 0.5% bovine serum albumin), ¹²⁵I-C5a (typically 0.1 ng), and membrane (typically 0.5 µg) were added sequentially to a final volume of 200 µl. After incubation for 60-90 minutes 2 ml of assay buffer was added, the solution mixed, and the sample filtered through either a Whatman® GF/C filter treated with 0.33% polyethyleneimine or an untreated Millipore®GVWP filter. See (Bruns, R.F., Lawson-Wending, K., and Pugsley, T.A. (1983) Anal. Biochem. 132, 74-79). The filters were then counted in a Packard 460 γ-counter. Nonspecific backgrounds were determined by including 20 ng or more of unlabled C5a in the incubation mixture. To assay soluble receptor, assay buffer, solubilized membrane (typically 5 µl) and ¹²⁵I-C5a were mixed to a final volume of 200 µl and incubated for 15-30 minutes, at which time 500 µl of 0.1% bovine γ-globulin and 500 µl of 30% polyethylene glycol were added sequentially with vigorous mixing. After an additional 5 minutes, the sample was filtered and washed with 2 ml of a 9% PEG solution. […]"}
{"molecule": "Nc1ncnc2c1ncn2[C@@H]1O[C@H](COP(=O)(O)OP(=O)(O)OP(=O)(O)O)[C@@H](O)[C@H]1O", "note": "[ATP]", "values": [{"measurement": "sensitivity of binding of C5a to the purified receptor to inhibition", "value": "not"}]}
